E-selectin induc: induces E-selectin expression in human endothelial cells; P16581; HUVEC E-selectin immunofluorescence imaging; normalized: neutral wells 0, TNF-alpha wells 100; activation, % at 7.58 µM; actives 0.37% (n = 260,000);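 active = mean E-selectin-positive cell signal at least 10% of the positive control, reached in at least 60% of replicates, without over 20% cell loss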
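Test system – human umbilical vein endothelial cells (HUVEC), E-selectin induction · Input – 3,000 HUVEC seeded per well · Buffer or medium – EGM-2, gelatin · Compound dosing – single-point compound dose · Detection – immunofluorescence imaging · Measure – percent E-selectin-positive cells · Controls – TNF-alpha high, DMSO low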
UUG fidelity: modulators of start codon recognition fidelity in yeast. S. cerevisiae UUG-firefly luciferase reporter, luminescence/redox ratio. activity score, % at 18.7 µM. 0.13% of 350,000 active. AID 602363;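 active = replicate mean at a twofold rise or more, about +100% in these data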;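 also: firefly luciferase made from a UUG start codon reports start codon fidelity; reporter light over untreated wells divided by growth signal over untreated wells; some hits fall short of that in this replicate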
ARNT-TACC3 inh: disrupts binding between human ARNT and TACC3; Q9Y6A5; AlphaScreen His-ARNT PAS-B/GST-TACC3 binding, luminescence; TACC3 fragment carries E629A point mutation; inhibition, % at 9.99 µM; actives 0.66% (n = 390,000); AID 623870;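 active = mean inhibition of replicates at least 50% and at least half of replicates each reaching 50%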;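 note: 0% = complete ARNT plus TACC3 wells and 100% = ARNT alone without TACC3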
ERAP1 HTS inh: ERAP1 (human) enzyme inhibition. inhibition, % at 10.7 µM. recombinant ERAP1, Leu-AMC fluorescence, 60 min. actives 0.15% (n = 340,000);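 active = mean replicate inhibition of at least 30%, or all replicates individually reaching that 30% level; inactive = mean below 30% and not every replicate reaching it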;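 note: 0% = neutral control wells and 100% = L-leucinethiol positive control wells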
S100A4 MyoIIA: inhibitors of human S100A4 binding to myosin IIA peptide; AID 652163; inhibition, % at 10.7 µM; S100A4/TAMRA-MyoIIA peptide fluorescence polarization; P26447; actives 0.14% (n = 360,000);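 active = mean inhibition of at least 70% across replicates, with every replicate also reaching that level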
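Compound dosing: one dose per compound; test system: human S100A4 monomer with TAMRA-labelled myosin IIA peptide; probe or stimulus: TAMRA-labelled myosin IIA heavy-chain peptide probe, 5 nM; medium: HEPES buffer with Ca2+, pH 7.2; schedule: 5 min incubation before reading; benchmarks: neutral control DMSO, positive control TFP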
AF4-AF9 inh: MLL-AF4/AF9 protein interaction inhibition; inhibition, % at 10 µM; actives 0.47% (n = 350,000); AID 651704; AlphaScreen, biotin-AF4 peptide binding to FLAG-AF9;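 active = every replicate reaching a set inhibition limit, whatever the replicate mean, cut at about 25% in these data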;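 note: 0% = plate neutral control median and 100% = total signal loss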
Active calls of the source: *; nt = no result. The list is not random: actives were taken first. Their share in the collection is about 1.3%.

Sample of the layout:
1) CC(C)NC(=O)N(C)C[C@H]1Oc2c(NC(=O)c3ccc(-c4nccs4)cc3)cccc2C(=O)N([C@@H](C)CO)C[C@@H]1C
2) C[C@@H]1CN([C@@H](C)CO)C(=O)c2cccc(NC(=O)c3ccc(-c4nccs4)cc3)c2O[C@@H]1CN(C)Cc1ccc(Cl)c(Cl)c1

Assay by compound,1,2
E-selectin induc,-2.9,32.4*
UUG fidelity,6.2,3.9
ARNT-TACC3 inh,nt,11.9
ERAP1 HTS inh,-0.1,0.0
S100A4 MyoIIA,-0.9,-2.0
AF4-AF9 inh,-12.5,1.6

The listing, from the start:
1) CC(C)NC(=O)N(C)C[C@H]1Oc2c(NC(=O)c3ccc(-c4nccs4)cc3)cccc2C(=O)N([C@@H](C)CO)C[C@@H]1C
2) C[C@@H]1CN([C@@H](C)CO)C(=O)c2cccc(NC(=O)c3ccc(-c4nccs4)cc3)c2O[C@@H]1CN(C)Cc1ccc(Cl)c(Cl)c1
3) CCC(=O)Nc1ccc2c(c1)C(=O)N(C)C[C@H](OC)[C@H](C)CN(CCc1ccccc1)[C@@H](C)CO2
4) Cc1noc(C)c1NC(=O)N(C)C[C@H]1Oc2ccc(NS(=O)(=O)c3cn(C)cn3)cc2CC(=O)N([C@H](C)CO)C[C@@H]1C
5) COc1ccc(S(=O)(=O)NN(C)C(=O)c2nn(-c3ccccc3)ccc2=O)cc1
6) C[C@H](CO)N1C[C@H](C)[C@@H](CN(C)Cc2cccc(F)c2)OCc2ccccc2-c2ccccc2C1=O

Assay by compound,1,2,3,4,5,6
E-selectin induc,-2.9,32.4*,-0.2,nt,26.7*,-0.1
UUG fidelity,6.2,3.9,-11.5,-9.5,-12.2,nt
ARNT-TACC3 inh,nt,11.9,-10.8,nt,-1.5,9.6
ERAP1 HTS inh,-0.1,0.0,-4.0,0.0,-2.7,0.7
S100A4 MyoIIA,-0.9,-2.0,3.8,9.2,-3.5,3.8
AF4-AF9 inh,-12.5,1.6,1.6,-6.9,-3.4,-4.8

7) N#CC(=C1C=C(Br)C(=NO)C=C1Cl)c1cccc2ccccc12
8) COc1ccc(C(C#N)=C2C=C(Cl)C(=NO)C=C2Cl)cc1
9) C[C@@H]1CN([C@H](C)CO)C(=O)c2cc(-c3ccncc3)cnc2O[C@H]1CN(C)C(=O)c1ccncc1
10) CCCCn1c(N)c(N(CCOC)C(=O)C2CCCN(C(=O)c3ccc(Cl)cc3)C2)c(=O)[nH]c1=O (stereo not drawn)
11) CCCCn1c(N)c(N(CC(C)C)C(=O)c2ccc(S(=O)(=O)N3CCCCC3)cc2)c(=O)[nH]c1=O
12) CCCCn1c(N)c(N(CC(C)C)C(=O)c2cccc(S(=O)(=O)N3CCCCC3)c2)c(=O)[nH]c1=O

Assay by compound,7,8,9,10,11,12
E-selectin induc,0.3,-0.2,0.0,-1.4,57.9*,nt
UUG fidelity,-14.6,nt,-14.6,nt,-4.0,-8.7
ARNT-TACC3 inh,nt,nt,-4.9,-2.2,0.0,-2.4
ERAP1 HTS inh,-4.0,0.3,0.8,61.7*,3.8,0.1
S100A4 MyoIIA,-3.3,-1.1,-3.9,-4.9,-1.8,-5.0
AF4-AF9 inh,25.5*,3.9,-4.9,0.4,1.1,-8.4

13) CCCNC(=O)C[C@@H]1CC[C@H]2[C@@H](COc3ccc(NC(=O)NC(C)C)cc3C(=O)N2C)O1
14) CCS(=O)(=O)C(C)(CCl)C(=O)Nc1ccc(C(=O)OC)cc1 (stereo not drawn)
15) Cc1noc(C)c1NC(=O)N(C)C[C@H]1OCCCC[C@H](C)Oc2ccc(NS(=O)(=O)c3ccc(F)cc3)cc2C(=O)N([C@H](C)CO)C[C@@H]1C
16) Cc1ccc(S(=O)(=O)Nc2ccc3c(c2)C(=O)N([C@H](C)CO)C[C@@H](C)[C@@H](CN(C)C(=O)NC(C)C)OCCCC[C@@H](C)O3)cc1
17) COc1ccc(S(=O)(=O)Nc2ccc3c(c2)C(=O)N([C@H](C)CO)C[C@H](C)[C@H](CN(C)C(=O)Nc2ccccc2)OCCCC[C@H](C)O3)cc1
18) Cc1ccc(S(=O)(=O)Nc2ccc3c(c2)C(=O)N([C@H](C)CO)C[C@H](C)[C@H](CN(C)C(=O)NC(C)C)OCCCC[C@H](C)O3)cc1

Assay by compound,13,14,15,16,17,18
E-selectin induc,0.1,5.2,0.2,0.1,0.1,-0.2
UUG fidelity,-12.0,-12.4,4.0,61.4,2.5,-21.9
ARNT-TACC3 inh,-4.0,active,-9.7,4.3,-20.3,-18.7
ERAP1 HTS inh,-0.4,3.1,-7.5,-8.9,3.6,-4.7
S100A4 MyoIIA,2.0,-3.5,134.2*,106.9*,107.5*,0.2
AF4-AF9 inh,-1.2,-2.2,-7.7,-8.3,0.8,-17.4

19) Cc1ccc(S(=O)(=O)Nc2ccc3c(c2)C(=O)N([C@H](C)CO)C[C@@H](C)[C@H](CN(C)S(C)(=O)=O)OCCCC[C@@H](C)O3)cc1
20) Cc1ccc(S(=O)(=O)Nc2ccc3c(c2)C(=O)N([C@@H](C)CO)C[C@H](C)[C@H](CN(C)S(C)(=O)=O)OCCCC[C@@H](C)O3)cc1
21) COc1ccc(S(=O)(=O)Nc2ccc3c(c2)OC[C@@H](C)N(C(=O)NC(C)C)C[C@@H](C)[C@H](OC)CN(C)C3=O)cc1
22) C[C@@H]1CCCCO[C@H](CN(C)C)[C@@H](C)CN([C@@H](C)CO)C(=O)c2cc(NC(=O)NC3CCCCC3)ccc2O1
23) COC(=O)c1c(CC[C@@H](CO)NC(=O)N[C@H](Cc2ccccc2)Cn2cc(-c3ccccc3N)nn2)oc(C(C)=O)c1C(=O)OC
24) COC(=O)c1c(CC[C@@H](CO)NC(=O)N[C@H](Cc2ccccc2)Cn2cc(-c3ccccn3)nn2)oc(C(C)=O)c1C(=O)OC

Assay by compound,19,20,21,22,23,24
E-selectin induc,-0.2,1.2,-0.2,-0.2,nt,nt
UUG fidelity,18.5,49.4,4.0,nt,nt,-25.4
ARNT-TACC3 inh,-1.8,-2.9,3.1,nt,nt,21.9*
ERAP1 HTS inh,3.6,3.9,1.4,nt,-0.7,0.8
S100A4 MyoIIA,125.2*,-5.3,8.4,nt,-3.6,-1.1
AF4-AF9 inh,4.0,-0.9,-2.2,nt,-0.4,-1.2

The final 2 compounds of the section before come first, to join the parts.
23) COC(=O)c1c(CC[C@@H](CO)NC(=O)N[C@H](Cc2ccccc2)Cn2cc(-c3ccccc3N)nn2)oc(C(C)=O)c1C(=O)OC
24) COC(=O)c1c(CC[C@@H](CO)NC(=O)N[C@H](Cc2ccccc2)Cn2cc(-c3ccccn3)nn2)oc(C(C)=O)c1C(=O)OC
25) Cc1ccc(S(=O)(=O)Nc2cccc3c2O[C@@H](CN(C)S(=O)(=O)c2ccc(F)cc2)[C@@H](C)CN([C@@H](C)CO)C3=O)cc1
26) S=c1[nH]nc(-c2ccccn2)n1/N=C/c1ccc(Br)s1
27) S=c1[nH]nc(-c2ccccn2)n1/N=C/c1ccc(-c2ccccc2Cl)o1
28) COCCNC(=O)C[C@@H]1CC[C@@H]2[C@H](COc3ccc(NC(=O)c4cnccn4)cc3C(=O)N2C)O1
29) CN(C[C@@H]1N[C@H](CO)[C@@H]1c1ccc(C2=CCCCC2)cc1)S(C)(=O)=O
30) CCC(=O)N(C)C[C@H]1Oc2ncc(-c3ccc(C(=O)N(C)C)cc3)cc2C(=O)N([C@@H](C)CO)C[C@H]1C

Assay by compound,23,24,25,26,27,28,29,30
E-selectin induc,nt,nt,-0.3,nt,nt,0.0,0.2,0.1
UUG fidelity,nt,-25.4,-9.0,nt,nt,-12.5,-23.2,46.9
ARNT-TACC3 inh,nt,21.9*,4.4,99.3*,55.8*,-3.3,14.5,-1.1
ERAP1 HTS inh,-0.7,0.8,nt,nt,0.9,1.7,nt,-2.4
S100A4 MyoIIA,-3.6,-1.1,nt,nt,4.0,0.1,nt,111.0*
AF4-AF9 inh,-0.4,-1.2,nt,nt,-13.5,-2.5,nt,-3.0

31) C[C@H]1CN([C@@H](C)CO)C(=O)c2cc(-c3cccc(C#N)c3)cnc2O[C@@H]1CN(C)Cc1cccnc1
32) C[C@H]1CN([C@@H](C)CO)C(=O)c2cc(C#CC3CC3)cnc2O[C@@H]1CN(C)C(=O)c1ccccc1
33) C[C@@H]1CN([C@H](C)CO)C(=O)c2cc(C#Cc3cccc(F)c3)cnc2O[C@H]1CN(C)C(=O)C1CCC1
34) C[C@@H]1CN([C@@H](C)CO)C(=O)c2cc(C#CC3CC3)cnc2O[C@@H]1CN(C)C(=O)c1ccccc1
35) C[C@@H]1CN([C@@H](C)CO)C(=O)c2cc(-c3cccc(C#N)c3)cnc2O[C@H]1CN(C)Cc1cccnc1

Assay by compound,31,32,33,34,35
E-selectin induc,0.9,0.2,67.2*,97.0*,-0.1
UUG fidelity,nt,1.8,11.3,24.9,nt
ARNT-TACC3 inh,-5.9,-8.2,3.7,11.4,7.5
ERAP1 HTS inh,2.1,-0.2,0.9,-0.3,0.8
S100A4 MyoIIA,127.6*,-1.3,8.3,6.6,1.8
AF4-AF9 inh,-8.0,4.1,-0.8,0.5,-2.0

High-throughput results from PubChem BioAssay.
